# From IntAct's records for PubMed 22267482
# B1: Tumor necrosis factor-inducible gene 6 protein (Homo sapiens), P98066 (parent)
# chain: MIILIYLFLLLWEDTQGWGFKDGIFHNSIWLERAAGVYHREARSGKYKLTYAEAKAVCEFEGGHLATYKQLEAARKIGFHVCAAGWMAKGRVGYPIVKPGPNCGFGKTGIIDYGIRLNRSERWDAYCYNPHAKECGGVFTDPKQIFKSPGFPNEYEDNQICYWHIRLKYGQRIHLSFLDFDLEDDPGCLADYVEIYDSYDDVHGFVGRYCGDELPDDIISTGNVMTLKFLSDASVTAGGFQIKYVAMDPVSKSSQGKNTSTTSTGNKNFLAGRFSHL
# Variants of: B1
# Settings: with ptx3_human PTX3, P26022
row,effect of a mutation on the interaction,Variant
1,with no effect,E183S
2,with no effect,Y94F
3,decreasing interaction strength,Y47F
